Test results published in ChEMBL document CHEMBL4024757, “Application of the Ugi Multicomponent Reaction in the Synthesis of Reactivators of Nerve Agent Inhibited Acetylcholinesterase” (2017).
The source made the active and inactive calls. The rule behind the calls is not given here.

By UniProt entry, the sequences of proteins in these tests, tags left out. Where a name states a change or a piece, a line headed by the entry shows the natural chain unless it says otherwise.
UniProt P22303: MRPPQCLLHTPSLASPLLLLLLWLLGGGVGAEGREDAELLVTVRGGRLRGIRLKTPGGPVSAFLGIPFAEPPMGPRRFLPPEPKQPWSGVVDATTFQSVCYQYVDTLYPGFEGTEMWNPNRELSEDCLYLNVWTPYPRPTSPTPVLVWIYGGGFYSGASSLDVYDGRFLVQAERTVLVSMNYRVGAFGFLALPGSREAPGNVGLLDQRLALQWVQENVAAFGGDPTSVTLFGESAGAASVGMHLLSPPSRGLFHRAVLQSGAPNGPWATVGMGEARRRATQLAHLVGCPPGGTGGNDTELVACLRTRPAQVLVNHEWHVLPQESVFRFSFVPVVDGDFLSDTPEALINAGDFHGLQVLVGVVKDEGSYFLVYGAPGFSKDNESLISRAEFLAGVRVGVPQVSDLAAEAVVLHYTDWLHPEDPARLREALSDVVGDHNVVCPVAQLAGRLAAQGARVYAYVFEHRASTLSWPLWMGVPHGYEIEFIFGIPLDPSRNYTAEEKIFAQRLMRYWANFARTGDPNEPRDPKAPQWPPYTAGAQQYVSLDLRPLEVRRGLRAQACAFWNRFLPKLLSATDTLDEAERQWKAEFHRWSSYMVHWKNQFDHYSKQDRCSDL

What was measured:
[1] = biological target: Acetylcholinesterase (Homo sapiens) (UniProt P22303); experiment: Reactivation of sarin inhibited human erythrocyte AChE assessed as residual activity at 10 to 1000 uM using acetylthiocholine iodide as substrate preincubated for 2 to 120 mins followed by substrate addition measured for 3 mins by Ellman's method
[2] = biological target: Acetylcholinesterase (Homo sapiens) (UniProt P22303); experiment: Reactivation of cyclosarin inhibited human erythrocyte AChE assessed as residual activity at 10 to 1000 uM using acetylthiocholine iodide as substrate preincubated for 2 to 120 mins followed by substrate addition measured for 3 mins by Ellman's method
[3] = biological target: Acetylcholinesterase (Homo sapiens) (UniProt P22303); experiment: Reactivation of tabun inhibited human erythrocyte AChE assessed as residual activity at 10 to 1000 uM using acetylthiocholine iodide as substrate preincubated for 2 to 120 mins followed by substrate addition measured for 3 mins by Ellman's method
[4] = biological target: Acetylcholinesterase (Homo sapiens) (UniProt P22303); experiment: Reactivation of tabun inhibited human erythrocyte AChE assessed as residual activity up to 0.25 mM using acetylthiocholine iodide as substrate preincubated for 2 to 120 mins followed by substrate addition measured for 3 mins by Ellman's method
[5] = biological target: Acetylcholinesterase (Homo sapiens) (UniProt P22303); experiment: Reactivation of cyclosarin inhibited human erythrocyte AChE assessed as residual activity up to 0.25 mM using acetylthiocholine iodide as substrate preincubated for 2 to 120 mins followed by substrate addition measured for 3 mins by Ellman's method
[6] = biological target: Acetylcholinesterase (Homo sapiens) (UniProt P22303); experiment: Reactivation of sarin inhibited human erythrocyte AChE assessed as residual activity up to 0.25 mM using acetylthiocholine iodide as substrate preincubated for 2 to 120 mins followed by substrate addition measured for 3 mins by Ellman's method
Rattus norvegicus = experiment: Anticholinergic activity in Wistar rat assessed as protection against sarin-induced convulsions at 16 umol/kg, iv after 4 hrs

For `O=C(O)CCCn1ccnc1/C=N/O`, the Activity [1] was “inactive”, the Activity [2] was “inactive” and the Activity [3] was “inactive”.

With `COc1ccc(CN(CC(=O)NCc2ccccc2)C(=O)Cn2ccnc2/C=N/O)cc1` the Activity [4] was “inactive”, the Activity [5] was “inactive” and the Activity [6] was “inactive”.

`CCCCN(CC(=O)NCc1ccccc1)C(=O)CCCCCn1ccnc1/C=N/O` was tested, and the Activity (Rattus norvegicus) was “inactive”.

For `O=C(O)Cn1ccnc1/C=N/O`, the Activity [1] was “inactive”, the Activity [2] was “inactive” and the Activity [3] was “inactive”.

For `O=C(O)CCCCCNC(=O)/C=N/O`, the Activity [2] was “inactive” and the Activity [3] was “inactive”.

For `C/C(=N\O)C(=O)O`, the Activity [2] was “inactive” and the Activity [3] was “inactive”.

With `O=C(O)CCCCC[n+]1ccc(/C=N/O)cc1` the Activity [1] was “Active”, the Activity [2] was “inactive” and the Activity [3] was “inactive”.

In the case of `COc1ccc(CN(CC(=O)NC(C)C)C(=O)CCCCCNC(=O)/C=N/O)cc1`, the Activity [1] is reported as “Active”, the Activity [2] is reported as “inactive” and the Activity [3] is reported as “inactive”.

For `[C-]#[N+]C(C)C`, the Activity [2] was “inactive” and the Activity [3] was “inactive”.

With `N#C/C(=N\O)C(=O)O` the Activity [2] was “inactive” and the Activity [3] was “inactive”.

With `CCCCN(CC(=O)NC(C)C)C(=O)Cn1ccnc1/C=N/O` the Activity [4] was “inactive”, the Activity [5] was “inactive” and the Activity [6] was “inactive”.

For `COCCN`, the Activity [2] was “inactive” and the Activity [3] was “inactive”.

In the case of `COc1ccc(CN(CC(=O)NC(C)C)C(=O)CCCCC[n+]2ccc(/C=N/O)cc2)cc1`, the Activity [1] is reported as “Active”, the Activity [2] is reported as “inactive” and the Activity [3] is reported as “inactive”.

`O=C(O)/C=N/O` was tested, and the Activity [2] was “inactive” and the Activity [3] was “inactive”.

With `CCCCN(CC(=O)NCc1ccccc1)C(=O)Cn1ccnc1/C=N/O` the Activity [4] was “inactive”, the Activity [5] was “inactive” and the Activity [6] was “inactive”.

For `COc1ccc(CN)cc1`, the Activity [2] was “inactive” and the Activity [3] was “inactive”.

With `COc1ccc(CN(CC(=O)NC(C)C)C(=O)C[n+]2ccc(/C=N\O)cc2)cc1` the Activity [1] was “Active”, the Activity [2] was “inactive” and the Activity [3] was “inactive”.

`COc1ccc(CN(CC(=O)NC(C)C)C(=O)CCCNC(=O)/C=N/O)cc1` was tested, and the Activity [1] was “Active”, the Activity [2] was “inactive” and the Activity [3] was “inactive”.

With `COc1ccc(CN(CC(=O)NC(C)C)C(=O)/C(C)=N/O)cc1` the Activity [1] was “Active”, the Activity [2] was “inactive” and the Activity [3] was “inactive”.

In the case of `C/C(=N\O)C(=O)NCCCC(=O)O`, the Activity [2] is reported as “inactive” and the Activity [3] is reported as “inactive”.

With `COc1ccc(CN(CC(=O)NC(C)C)C(=O)/C=N/O)cc1` the Activity [1] was “Active”, the Activity [2] was “inactive” and the Activity [3] was “inactive”.

`O=C(O)CCCCCn1ccnc1/C=N/O` was tested, and the Activity [1] was “inactive”, the Activity [2] was “inactive” and the Activity [3] was “inactive”.

In the case of `COc1ccc(CN(CC(=O)NC(C)C)C(=O)Cn2ccnc2/C=N/O)cc1`, the Activity [4] is reported as “inactive”, the Activity [5] is reported as “inactive” and the Activity [6] is reported as “inactive”.

`C/C(=N\O)C(=O)NCCC(=O)O` was tested, and the Activity [2] was “inactive” and the Activity [3] was “inactive”.

`COc1ccc(CN(CC(=O)NC(C)C)C(=O)CCNC(=O)/C(C)=N/O)cc1` was tested, and the Activity [2] was “inactive” and the Activity [3] was “inactive”.

`CCCCN` was tested, and the Activity [2] was “inactive” and the Activity [3] was “inactive”.

`O=C(O)C[n+]1ccc(/C=N/O)cc1` was tested, and the Activity [1] was “Active”, the Activity [2] was “inactive” and the Activity [3] was “inactive”.

`O=C(O)CCCNC(=O)/C=N/O` was tested, and the Activity [2] was “inactive” and the Activity [3] was “inactive”.

With `COc1ccc(CN(CC(=O)NCc2ccccc2)C(=O)CCCCCn2cc[n+](C)c2/C=N\O)cc1` the Activity (Rattus norvegicus) was “Active”.

With `COc1ccc(CN(CC(=O)NCc2ccccc2)C(=O)CCCCCn2ccnc2/C=N/O)cc1` the Activity (Rattus norvegicus) was “inactive”.

For `COc1ccc(CN(CC(=O)NC(C)C)C(=O)CCCCCn2cc[n+](C)c2/C=N\O)cc1`, the Activity (Rattus norvegicus) was “inactive”.

In the case of `COc1ccc(CN(CC(=O)NC(C)C)C(=O)CCCNC(=O)/C(C)=N/O)cc1`, the Activity [2] is reported as “inactive” and the Activity [3] is reported as “inactive”.

In the case of `O=C(O)/C(=N/O)C(F)(F)F`, the Activity [2] is reported as “inactive” and the Activity [3] is reported as “inactive”.
